The numbers were not newly measured in publication PMC6278313, which cites them from elsewhere.

A word on the Ki: it is the equilibrium dissociation constant of an inhibitor or competing ligand from its target.

For series [1], the system named is COX-2. To be noted: Chart 1, ref literature cited in the text (18-30), cited from earlier work.
The target in series [2] is COX-2. Also noted: method as in literature cited in the text (18-30). The following applies: Chart 1; ref literature cited in the text (18-30); cited from earlier work.

For the compound `[11CH3]Oc1ccc(-c2cc(C(F)(F)F)nn2-c2ccc(S(N)(=O)=O)cc2)cc1` [[^11C]2], the “specific signal / specific binding in vivo” value in the series on COX-2 [1] is recorded as “No brain specific signal”. On COX-2 [2], the Ki was 8 nM.
Take `CS(=O)(=O)c1ccc(C2=C(c3ccc(O[11CH3])cc3)CCC2)cc1` [[^11C]8]: the brain entry result with COX-2 [1] (PET in vivo) was “Brain penetrant”. Also, the Ki on COX-2 [2] is 5 nM.
In the case of `[11CH3]Oc1ccc(-c2c(-c3ccc(S(N)(=O)=O)cc3)[nH]c3ccccc23)cc1` [[^11C]7], in the series on COX-2 [1], the “specific signal / specific binding in vivo” value is listed as “No specific signal”. At COX-2 [2], the Ki is 6 nM.
